PubChem BioAssay AID2528 (National Center for Advancing Translational Sciences (NCATS), 2010)
Several values for one entry are separate records, joined by “and”; a condition that tells them apart may be missing. Equal entries are not always repeated. Only a part is listed here, and it is no random draw. Activity calls are given as the source filed them. Calls follow the shape of the dose curve; as a rule, active = well fitted inhibition curve with a large enough effect; inconclusive = small, poorly fitted or top-dose-only effect; inactive = flat fitted curve, though single readings scatter.

Protein sequences, listed by entry. Tags and fused reporters are not part of them. Lines headed by an entry give the natural chain unless they say otherwise; changes in a name come on top.
UniProt P54132: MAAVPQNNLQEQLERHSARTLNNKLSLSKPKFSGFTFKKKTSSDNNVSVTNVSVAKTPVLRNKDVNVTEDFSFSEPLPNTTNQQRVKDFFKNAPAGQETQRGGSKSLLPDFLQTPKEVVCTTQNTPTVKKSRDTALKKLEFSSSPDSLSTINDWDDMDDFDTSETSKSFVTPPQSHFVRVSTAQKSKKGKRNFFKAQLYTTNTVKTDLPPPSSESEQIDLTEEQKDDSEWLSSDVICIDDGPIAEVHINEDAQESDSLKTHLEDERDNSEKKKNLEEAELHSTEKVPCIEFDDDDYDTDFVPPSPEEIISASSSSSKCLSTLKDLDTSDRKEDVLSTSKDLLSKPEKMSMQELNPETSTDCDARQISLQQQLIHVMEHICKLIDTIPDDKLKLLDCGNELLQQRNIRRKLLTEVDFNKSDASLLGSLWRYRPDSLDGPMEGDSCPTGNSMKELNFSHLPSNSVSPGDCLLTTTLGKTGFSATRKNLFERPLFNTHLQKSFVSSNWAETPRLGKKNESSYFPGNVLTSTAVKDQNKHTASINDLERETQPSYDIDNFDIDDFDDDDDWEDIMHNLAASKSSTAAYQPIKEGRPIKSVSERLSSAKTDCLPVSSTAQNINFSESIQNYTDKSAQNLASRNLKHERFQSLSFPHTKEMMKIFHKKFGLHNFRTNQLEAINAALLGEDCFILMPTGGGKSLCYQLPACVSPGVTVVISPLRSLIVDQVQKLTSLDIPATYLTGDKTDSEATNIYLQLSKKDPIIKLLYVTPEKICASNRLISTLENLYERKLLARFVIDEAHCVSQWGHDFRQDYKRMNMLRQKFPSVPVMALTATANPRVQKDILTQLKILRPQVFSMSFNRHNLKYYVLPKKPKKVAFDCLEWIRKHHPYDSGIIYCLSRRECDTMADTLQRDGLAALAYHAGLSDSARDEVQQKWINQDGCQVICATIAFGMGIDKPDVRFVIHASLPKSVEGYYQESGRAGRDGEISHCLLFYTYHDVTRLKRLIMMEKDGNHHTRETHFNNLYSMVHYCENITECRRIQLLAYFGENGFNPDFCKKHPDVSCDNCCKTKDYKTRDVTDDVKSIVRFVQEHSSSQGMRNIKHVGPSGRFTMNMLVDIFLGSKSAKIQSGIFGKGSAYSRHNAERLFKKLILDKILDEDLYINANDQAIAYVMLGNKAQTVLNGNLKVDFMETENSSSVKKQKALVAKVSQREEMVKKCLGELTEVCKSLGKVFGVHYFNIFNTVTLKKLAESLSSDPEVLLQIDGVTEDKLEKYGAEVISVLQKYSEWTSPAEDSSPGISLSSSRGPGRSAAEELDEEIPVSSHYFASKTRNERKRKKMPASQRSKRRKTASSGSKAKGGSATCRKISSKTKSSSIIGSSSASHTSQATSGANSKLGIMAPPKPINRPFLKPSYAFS

Target: RecQ-like DNA helicase BLM (Homo sapiens) (UniProt P54132)
Experiment: qHTS Assay for Inhibitors of Bloom's syndrome helicase (BLM);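 also: plate controls were vehicle for no effect and no enzyme for full effect; nearly all actives have a fitted effect of over 35% in size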
Details: recombinant BLM DNA unwinding, fluorescence dequenching
[1] = at 56.1 µM (top of the series) unless noted

Cc1nn(-c2ccccc2)c2c1P(=O)(N1CCOCC1)N(C)C(c1ccccc1)=N2 (configuration not stated)
activity change, negative = inhibition [1]: inactive: -6.32%

Cc1ccc(C(=O)OC2CN3CCC2CC3)cc1 (configuration not stated)
activity change, negative = inhibition [1]: inactive: 2.1%

CC1CCC(C(C)C)C(OP(=O)(Nc2ccccn2)c2ccccc2)C1 (configuration not stated)
activity change, negative = inhibition [1]: inactive: -10.3%

O=[As](O)(c1cccs1)c1cccs1
activity change, negative = inhibition [1]: inactive: -6.65%

Cc1ccc(OCC(=O)OC2CN3CCC2CC3)cc1 (configuration not stated)
activity change, negative = inhibition [1]: inactive: 0.482%

O=P1(Nc2ccc(Br)cn2)COc2ccccc2OC1
activity change, negative = inhibition [1]: inactive: 1.31%

Nc1cccc([As](=O)(O)c2ccccc2)c1
activity change, negative = inhibition [1]: inactive: -2.13%

O=P1(Nc2ncccn2)COc2ccccc2OC1
activity change, negative = inhibition [1]: inactive: 1.56%

O=C(O)COc1ccc([As](=O)(O)O)cc1[N+](=O)[O-]
activity change, negative = inhibition [1]: inactive: -0.0636%

Nc1ccccc1[As](=O)(O)c1ccccc1
activity change, negative = inhibition [1]: inactive: -2.14%

CS(=O)(=O)c1cc([N+](=O)[O-])c2no[n+]([O-])c2c1
activity change, negative = inhibition [1]: inactive: -3.11%

CCOP1(=S)c2c(C)nn(CCC#N)c2N=C(c2ccccc2F)N1C (configuration not stated)
activity change, negative = inhibition [1]: inactive: -4.5%

O=P(Nc1nccs1)(Oc1ccccc1)Oc1ccccc1
activity change, negative = inhibition [1]: inactive: -14.2%

O=P(Nc1nccs1)(c1ccccc1)c1nc2ccccc2s1 (configuration not stated)
activity change, negative = inhibition [1]: inactive: 1.01%

O=[N+]([O-])c1ccc2c(c1)nnn2O
activity change, negative = inhibition [1]: inactive: -4.11%

CCOP1(=S)c2c(C)nn(CCC#N)c2N=C(c2ccc(F)cc2)N1C (configuration not stated)
activity change, negative = inhibition [1]: inactive: -2.65%

NC(=O)Nc1ccc([As](=O)(O)O)cc1
activity change, negative = inhibition (at 21.4 µM (top of the series)): inactive: 3.24% | activity change, negative = inhibition (at 56.1 µM (top of the series)): inactive: -10.5% and inactive: -0.466%

O=[N+]([O-])CC(O)c1ccc([N+](=O)[O-])cc1 (configuration not stated)
activity change, negative = inhibition [1]: inactive: 5.74%

Cc1cccc(OCC(=O)OC2CN3CCC2CC3)c1 (configuration not stated)
activity change, negative = inhibition [1]: inactive: 3.85%

O=[As](O)(c1cccc(O)c1)c1cccc(O)c1
activity change, negative = inhibition [1]: inactive: -2.29%

O=[As](O)(O)c1cccnc1
activity change, negative = inhibition [1]: inactive: 0.311%

COc1cc(C(=O)NCC2(N3CCOCC3)CCCCC2)cc(Cl)c1OC(C)C
activity change, negative = inhibition [1]: inactive: -4.27%

CS(=O)(=O)c1ccc(Cl)c(NC(=O)COC(=O)C(O)(c2ccccc2)c2ccccc2)c1
activity change, negative = inhibition [1]: inactive: -5.62%

O=C(OC1CN2CCC1CC2)c1ccc(Cl)cc1 (configuration not stated)
activity change, negative = inhibition [1]: inactive: -1.69%

COc1cc(C2NCCC3(OCCO3)C2(C)C)cc(OC)c1OC (configuration not stated)
activity change, negative = inhibition [1]: inactive: 1.22%

CCOP(=O)(Nc1cccc2ccccc12)OCC
activity change, negative = inhibition [1]: inactive: 0.553%

CCCOP(=S)(Nc1nc(N)cc(=O)[nH]1)OCCC
activity change, negative = inhibition [1]: inactive: -6.27%

Cc1ccc(NCCc2c([N+](=O)[O-])cc([N+](=O)[O-])cc2[N+](=O)[O-])cc1
activity change, negative = inhibition [1]: inactive: -12%

COc1ccc2nc(NP(=O)(c3ccccc3)c3ccccc3)sc2c1
activity change, negative = inhibition [1]: inactive: -3.34%

COc1cc(I)ccc1[As](=O)(O)O
activity change, negative = inhibition [1]: inactive: -3.86%

O=C(OC1CN2CCC1CC2)C12CC3CC(CC(C3)C1)C2 (configuration not stated)
activity change, negative = inhibition [1]: inactive: 2.1%

Cc1cc(=O)[nH]c(N[N+](=O)[O-])n1
activity change, negative = inhibition [1]: inactive: 1.39%

Cc1c2c(nc3ccccc13)SC(C(Cl)Cl)C2 (configuration not stated)
activity change, negative = inhibition [1]: inactive: 3.37%

COc1ccc(N/C(=N/P(=O)(N2CCOCC2)N2CCOCC2)N2CCOCC2)cc1
activity change, negative = inhibition [1]: inactive: 0.652%

Cc1ccc2nc3c(c(C)c2c1)CC(C(Cl)Cl)S3 (configuration not stated)
activity change, negative = inhibition [1]: inactive: -5.26%

Cc1ccc(OP(=O)(Nc2ccc([N+](=O)[O-])cn2)Oc2ccc(C)cc2)cc1
activity change, negative = inhibition [1]: inactive: 1.11%

O=[As](O)(c1ccc(O)cc1)c1ccccc1O
activity change, negative = inhibition [1]: inactive: -0.423%

C[As](=O)(O)c1cccc(C(=O)O)c1
activity change, negative = inhibition [1]: inactive: -1.02%

CC(C)NC(=O)NP(=O)(Oc1ccccc1)Oc1ccccc1
activity change, negative = inhibition [1]: inactive: -0.926%

CCN(CC)C(=S)SC(NC=O)C(Cl)(Cl)Cl (configuration not stated)
activity change, negative = inhibition [1]: inactive: -2.25%

O=[N+]([O-])c1cc([N+](=O)[O-])c(-c2ccn[nH]2)s1
activity change, negative = inhibition [1]: inactive: -10.2%

CC(C)c1ccc(OP(=O)(Nc2ccccn2)Oc2ccccc2F)cc1 (configuration not stated)
activity change, negative = inhibition [1]: inactive: -6.58%

ClCCSc1nnc(-c2cccnc2)o1
activity change, negative = inhibition [1]: inactive: 0.981%

CCCCOc1ccc(C(=O)NCC2(N3CCCCC3)CCCCC2)cc1OC
activity change, negative = inhibition [1]: inactive: -0.11%

Cc1cc(SC(NC(=O)c2ccccc2)C(Cl)(Cl)Cl)nc(C(C)C)n1 (configuration not stated)
activity change, negative = inhibition [1]: inactive: -2.03%

CCOC(=O)Nc1ccc([As](=O)(O)O)c(O)c1
activity change, negative = inhibition [1]: inactive: 0.0886%

O=[N+]([O-])c1ccc(Nc2ccc(Oc3ccc([N+](=O)[O-])cc3[N+](=O)[O-])cc2)c([N+](=O)[O-])c1
activity change, negative = inhibition [1]: inactive: -4.69%

Cc1cc(SC(NC=O)C(Cl)(Cl)Cl)ncn1 (configuration not stated)
activity change, negative = inhibition [1]: inactive: 0.026%

O=P(Nc1ccccn1)(c1cccc2ccccc12)c1cccc2ccccc12
activity change, negative = inhibition [1]: inactive: -4.35%

CCOC(=O)Nc1cccc([As](=O)(O)O)c1
activity change, negative = inhibition [1]: inactive: -1.31%

O=C(COc1ccccc1)OC1CN2CCC1CC2 (configuration not stated)
activity change, negative = inhibition [1]: inactive: -0.913%

O=C(Nc1ccncc1[N+](=O)[O-])c1ccc([N+](=O)[O-])cc1[N+](=O)[O-]
activity change, negative = inhibition [1]: inactive: -2.44%

COP1(=S)c2c(C)nn(CCC#N)c2N=C(c2ccc(F)cc2)N1C (configuration not stated)
activity change, negative = inhibition [1]: inactive: -11.4%

CCC(C)N(CC(C)C)C(=S)SC(NC(C)=O)C(Cl)(Cl)Cl (configuration not stated)
activity change, negative = inhibition [1]: inactive: -8.3%

CCOC(=O)c1ccc(NC(=O)C(C)(CCl)SC)cc1 (configuration not stated)
activity change, negative = inhibition [1]: inactive: -0.212%

O=C(OC1CN2CCC1CC2)c1cccc([N+](=O)[O-])c1 (configuration not stated)
activity change, negative = inhibition [1]: inactive: -1.26%
